Structures are written as SMILES.

Protein sequences, listed by entry. Tags and fused reporters are not part of them. Residues count along the entry.
UniProt O00444, 1-391 limits assumed: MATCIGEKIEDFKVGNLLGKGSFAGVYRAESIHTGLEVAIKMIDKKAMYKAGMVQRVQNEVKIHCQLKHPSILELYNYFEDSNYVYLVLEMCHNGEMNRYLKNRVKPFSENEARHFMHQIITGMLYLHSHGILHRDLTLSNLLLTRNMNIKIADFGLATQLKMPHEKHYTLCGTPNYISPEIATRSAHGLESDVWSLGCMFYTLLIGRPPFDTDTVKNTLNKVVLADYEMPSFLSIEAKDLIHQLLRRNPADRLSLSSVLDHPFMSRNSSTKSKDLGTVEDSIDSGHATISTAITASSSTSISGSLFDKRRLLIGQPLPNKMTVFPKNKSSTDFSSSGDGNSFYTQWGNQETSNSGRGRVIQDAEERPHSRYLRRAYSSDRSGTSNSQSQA

The record followed here is US9907800B2, “Kinase inhibitors and method of treating cancer” (University Health Network, priority 2010, dated 2018).

The target of the assay is human PLK4 (Homo sapiens (Human), UniProt O00444). Kind of assay: PLK4 inhibition assay (indirect ELISA). It counts as biochemical. As to conditions: read-out: PLK4 IC50 Ranges.

As usually defined, the IC50 is the concentration that gives 50% inhibition. Turning to `O=C1Nc2ccccc2[C@]12CC2c1ccc2c(I)n[nH]c2c1` (relative stereo), the IC50 was 100 to 1000 nM.
